From PubChem BioAssay AID651636 (Sanford-Burnham Center for Chemical Genomics, 2012)
This is a selection; strong and weak results do not stand in their true shares. Active and inactive are the calls of the source. No stated cut-off is given here; in the data, active means inhibition above about 38%; inactive means the rest.

Protein sequences, listed by entry. Tags and fused reporters are not part of them.
UniProt P32249, whole entry: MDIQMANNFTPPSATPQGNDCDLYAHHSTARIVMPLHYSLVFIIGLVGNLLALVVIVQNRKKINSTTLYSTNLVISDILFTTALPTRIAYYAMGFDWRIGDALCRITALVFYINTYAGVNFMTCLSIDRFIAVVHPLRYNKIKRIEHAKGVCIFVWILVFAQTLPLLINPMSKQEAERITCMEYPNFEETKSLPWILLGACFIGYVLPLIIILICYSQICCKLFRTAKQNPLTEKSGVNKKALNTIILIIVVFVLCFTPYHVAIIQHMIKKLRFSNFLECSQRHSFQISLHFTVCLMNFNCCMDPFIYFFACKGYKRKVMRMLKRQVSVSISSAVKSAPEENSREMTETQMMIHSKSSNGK

biological target: G-protein coupled receptor 183 (Homo sapiens) (UniProt P32249); experiment: EBI2 receptor antagonists, beta-arrestin recruitment, primary screen, cell-based, luminescence, 7a,25-OHC stimulation, uHTS (AID 651636); conditions: 7a,25-OHC stimulated, at 5 µM, stronger effect = higher value;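 further: enzyme fragment complementation signal reports receptor beta-arrestin coupling in cells; 0% = agonist plus DMSO wells and 100% = wells without agonist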

Which inhibition does the source give for `CCC(=O)N(c1ccccc1)C1(COC)CCN(CCn2nnn(CC)c2=O)CC1` here?
The inhibition was inactive: 6.89%.

For `CCC(=O)N(c1ccccc1)C1(COC)CCN(CCc2cccs2)CC1`, which inhibition is on record?
The inhibition was inactive: 2.76%.
